Results on one substance are retold here after US11608326B2, “Synthetic receptors for ionophoric compounds” (Universiteit Gent, priority 2018, dated 2023).

The subject of series [1] is HepG2 cells. The experiment in a line: NR assay, HepG2 cells, 24 h incubation with beauvericin and receptor. Format: cell-based. Conditions: 15 μM BEA alone. On the procedure: HepG2 cells were grown in T25 or T75 flasks containing 4 ml or 12 ml of growth medium respectively. The growth medium contained: 10% foetal bovine serum, 1% antibiotics (Pen Strep, 10000 units/ml Penicillin+10000 μg/ml Streptomycin, purchased from Gibco, Thermofisher), 1% non-essential amino acids and cell medium (Dulbecco's Modified Eagle Medium+GlutaMAX, purchased from Gibco, Thermofisher). Cells were incubated in an atmosphere containing 5% CO2. 96-Well plates were prepared containing 0.2 ml of growth medium and 40.000 cells/well. […] The resulting plates are then incubated overnight. The growth medium was removed from the plate and the wells were filled with 200 μL of the appropriate treatment condition. Taking the 5 μM BEA+10 eq V1 treatment condition as an example: 20 μL from a 6.38·10^−3 M stock solution of BEA (in DMF) is added to 80 μL DMF (=solution A). From a stock solution of V1 (1.82·10^−5 M in DMF), 50 μL is taken and added to 50 μL DMF (=solution B). Then 16.5 μL is taken from this solution and added to a mixture containing 23.5 μL of solution A and 20 μL DMF. This solution was subsequently added to 5940 μL of growth medium. […]
After the treatment, each well was washed once with growth medium (without antibiotics nor serum). […] After 20 min, the UV-VIS absorbance is measured at 540 nm using a plate reader.

The conditions of series [2]: mice, intraperitoneally 5 mg/kg bw for three consecutive days; cited from earlier work.

As to beauvericin, the “cell survival (NR assay), toxin alone” value in series [1] was “had died”. In addition, the bioaccumulation entry in series [2] is “bioaccumulation in the liver and lipophilic tissue was observed”.
